Assay [1] has as its system PC-3 xenografts. The assay is described as follows: In vivo efficacy, PC-3 prostate tumor xenograft in nude mice. Particulars: mouse, iv, 10 mg/kg.
Assay [2] has as its system PC-3/TxR cells. The assay is described as follows: SRB cytotoxicity assay, paclitaxel-resistant PC-3/TxR. The following applies: Table 15; data in parentheses; IC50 values in PC-3 and PC-3/TxR compared.

In assay [1], `CC(=O)O[C@@]12CO[C@@H]1C[C@H](O)[C@@]1(C)C(=O)[C@H](O)C3=C(C)[C@@H](OC(=O)[C@H](O)[C@@H](NC(=O)OC(C)(C)C)c4ccccc4)C[C@@](O)([C@@H](OC(=O)c4ccccc4)[C@H]21)C3(C)C` [Docetaxel, reference compound] yielded a TGI of 84%. With `COc1cc(C(=O)c2csc(Nc3ccc4[nH]ccc4c3)n2)cc(OC)c1OC` [compound 55, (2-(1H-indol-5-yl amino)thiazol-4-yl)(3,4,5-trimethoxyphenyl)methanone], in assay [2], the “Resistance factor PC-3/TxR vs PC-3” value stood at 0.4.

The record behind these values is US8822513B2, “Compounds for treatment of cancer” (GTX, Inc., priority 2010, dated 2014).
